Values of other authors in US20110038855A1, “TRAIL AND METHODS OF MODULATING T CELL ACTIVITY AND ADAPTIVE IMMUNE RESPONSES USING TRAIL” (priority 2005, published 2011).

Tested on: helpless CD8+ T cells
Conditions: cytokine provided during secondary antigenic encounter; Janssen et al., Nature 421:852 (2003); cited from earlier work

IL-2
re-expansion of helpless CD8+ T cells upon restimulation: can permit their re-expansion
